Screens (PubChem BioAssay)
Sampled rows, rich in hits. Any-hit rate of the full collection: about 0.94%.
PKA-R2B act: activators of PKA-R2B holoenzyme, primary screen, biochemical, fluorescence polarization, Cy5-IP20, human; PKA-R2B holoenzyme dissociation; R2B truncated from residue 108, S112A mutant; 0% DMSO only, 100% 113 µM cGMP; activation, % at 11.4 µM; 340,000 tested, 0.079% active;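 active = activation above a cutoff set at the mean over all compounds plus 3 SD, cut at about 18% in these data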;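 also: higher means more holoenzyme dissociation and a rise in polarization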
pCIP destab: p/CIP-EGFP fusion destabilizers, primary screen, fluorescence, F442A cells; 290,000 tested, 0.01% active; 16 h; decrease of EGFP signal, % at 10 µM;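 active = EGFP signal decrease of at least 30% at 10 µM or well 3 SD below plate mean, unless failing retest; inactive = the rest, including hits failing retest or dose response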
PKA-R1A act: activators of PKA-R1A holoenzyme, primary screen, biochemical, fluorescence polarization, Cy5-IP20, bovine R1A, mouse PKAc; cAMP-dependent protein kinase type I-alpha regulatory subunit (Bos taurus) + …; PKA-R1A dissociation; scaled: DMSO 0%, 113 µM cGMP 100%; activation, % at 11.4 µM; 340,000 tested, 0.083% active; AID 504707, 2011;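 active = percent activation above the mean of all tested compounds plus 3 SD, cut at about 19% in these data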;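 also: higher means more PKAc released from R1A so a rise in polarization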
Exocytosis inh: LAMP-1 surface exposure blockers, TALL-104 cells – cell-based, flow cytometry, MLPCN library, primary screen; TALL-104 LAMP-1 surface exposure; cells stimulated with thapsigargin and PMA; inhibition, % at 10 µM; 360,000 tested, 0.66% active;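 active = inhibition above about 55%, limit read from the data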
ABCB6 inh MLPCN: ABCB6 transporter inhibitors, primary screen, K562-ABCB6 cells, flow cytometry, MLPCN library | 360,000 tested, 0.19% active | K562-ABCB6 porphyrin accumulation, 1 h; stronger effect = lower value | fluorescence ratio to DMSO, % at 10 µM | ATP-binding cassette sub-family B member 6 (Homo sapiens), Q9NP58;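 active = fluorescence ratio to DMSO below 75%, the collection mean minus 3 SD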;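 also: signal is porphyrin accumulated inside mitochondria; lower ratio means ABCB6 inhibition with less porphyrin fluorescence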
Yeast UUG start-1: modulators of start codon recognition fidelity in yeast; S. cerevisiae UUG-firefly luciferase reporter, luminescence/redox ratio; activity score, % at 18.7 µM; hit rate 0.13% among 350,000; AID 602363;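 active = replicate mean at a twofold rise or more, about +100% in these data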;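 note: firefly luciferase made from a UUG start codon reports start codon fidelity; reporter light over untreated wells divided by growth signal over untreated wells; some hits fall short of that in this replicate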
Yeast UUG start-2: enhancers of UUG start codon usage in yeast, dose response, S. cerevisiae, UUG firefly luciferase, cherry-pick, set 2. shares compounds with Yeast UUG start-1. luminescence, 4 h; 100% means double the DMSO signal. activation, % at 38 µM. 540 tested, under 10 active;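 active = signal increase whose fitted curve reaches an absolute level of 40 at a concentration under 10 µM; inactive = activity opposite to the expected increase, or the rest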
A number is an active result; n = inactive; x = not tested or not shown.

SMILES | PKA-R2B act | pCIP destab | PKA-R1A act | Exocytosis inh | ABCB6 inh MLPCN | Yeast UUG start-1 | Yeast UUG start-2
C[C@H](CO)N1C[C@H](C)[C@@H](CN(C)C(=O)Nc2ccc3c(c2)OCO3)Oc2ccc(NS(=O)(=O)c3cccs3)cc2CC1=O | x | x | x | x | x | n | x
CNC[C@H]1Oc2cc(C#Cc3ccccc3F)ccc2S(=O)(=O)N([C@H](C)CO)C[C@@H]1C | x | x | x | x | x | 137 | n
CNC[C@H]1Oc2cc(C#Cc3ccc(F)cc3)ccc2S(=O)(=O)N([C@H](C)CO)C[C@@H]1C | x | x | x | x | x | n | x
C[C@H](CO)N1C[C@H](C)[C@H](CN(C)C(=O)C2CCCCC2)Oc2cc(-c3cncnc3)ccc2S1(=O)=O | x | x | x | x | x | n | x
C[C@H]1CN([C@@H](C)CO)S(=O)(=O)c2ccc(C#Cc3ccncc3)cc2O[C@@H]1CN(C)S(=O)(=O)c1ccccc1 | x | x | x | x | x | 126 | n
C[C@H]1CN([C@@H](C)CO)S(=O)(=O)c2ccc(-c3cncnc3)cc2O[C@@H]1CN(C)C(=O)C1CCCCC1 | x | x | x | x | x | 254 | n
CCCC#Cc1ccc2c(c1)O[C@H](CN(C)Cc1cncnc1)[C@@H](C)CN([C@@H](C)CO)S2(=O)=O | x | x | x | x | x | 80 | n
Cc1noc(C)c1NC(=O)Nc1ccc2c(c1)CC(=O)N([C@H](C)CO)C[C@@H](C)[C@@H](CN(C)S(=O)(=O)c1cccs1)O2 | x | x | x | x | x | n | x
CCCC#Cc1ccc2c(c1)O[C@@H](CN(C)C(=O)CN(C)C)[C@H](C)CN([C@H](C)CO)S2(=O)=O | x | x | x | x | x | 150 | n
CCCC#Cc1ccc2c(c1)O[C@@H](CN(C)C(=O)CN(C)C)[C@H](C)CN([C@@H](C)CO)S2(=O)=O | x | x | x | x | x | n | x
C[C@H]1CN([C@@H](C)CO)S(=O)(=O)c2ccc(-c3cncnc3)cc2O[C@@H]1CN(C)Cc1ccccn1 | x | x | x | x | x | n | x
COc1ccccc1NC(=O)N(C)C[C@H]1Oc2cc(Br)ccc2S(=O)(=O)N([C@@H](C)CO)C[C@@H]1C | x | x | x | x | x | 162 | n
Cc1ccc(-c2ccc3c(c2)O[C@@H](CN(C)Cc2cncnc2)[C@@H](C)CN([C@H](C)CO)S3(=O)=O)cc1 | x | x | x | x | x | 135 | n
C[C@H](CO)N1C[C@H](C)[C@H](CN(C)Cc2ccccn2)Oc2cc(-c3cncnc3)ccc2S1(=O)=O | x | x | x | x | x | 124 | n
Cc1ccc(S(=O)(=O)N(C)C[C@@H]2Oc3ccc(NC(=O)C4CC4)cc3CC(=O)N([C@@H](C)CO)C[C@H]2C)cc1 | x | x | x | x | x | n | x
Cc1noc(C)c1NC(=O)Nc1ccc2c(c1)C(=O)N([C@@H](C)CO)C[C@@H](C)[C@@H](CN(C)S(=O)(=O)c1ccccc1)OCCCC[C@@H](C)O2 | x | x | x | x | x | n | x
COc1cc(C(=O)N2CCCc3ccccc32)cc(OC)c1OC | n | n | n | n | n | n | x
COc1ccc(C(=O)N2CCCc3ccccc32)cc1OC | n | n | n | n | n | active | n
CCOC(=O)CNC(=O)c1ccccc1 | n | n | n | n | n | 103 | n
C[C@H]1CN([C@@H](C)CO)C(=O)c2ccccc2-c2ccccc2CO[C@H]1CN(C)C(=O)Nc1ccccc1 | x | x | x | x | x | n | x
CC1CCCCC1NC(=O)/C(C#N)=C/c1ccccc1F (stereo not drawn) | n | n | n | n | n | 222 | n
CCCNC(=O)N(C)C[C@@H]1Oc2cc(C#CC3CC3)ccc2S(=O)(=O)N([C@@H](C)CO)C[C@@H]1C | x | x | x | x | x | n | x
Cc1ccc(S(=O)(=O)N2CCOCC2)cc1C(=O)OC(C)C(=O)NC1CCCC1 (stereo not drawn) | n | x | n | n | n | 119 | n
COc1cc2c(C#N)c(N3CCc4ccccc4C3)nc(N)c2c(N)n1 | n | n | n | n | n | 502 | n
